# Yeast mating assay B: variants of the scFv Ab-14

All variants were tested on one target, the spike HR2 peptide PDVDLGDISGINAS (SARS-CoV-2).

Ab-14 is the parent antibody, in scFv form: VH, then a (GGGGS)3 linker, then VL. The light chain is unchanged in all variants.
VH: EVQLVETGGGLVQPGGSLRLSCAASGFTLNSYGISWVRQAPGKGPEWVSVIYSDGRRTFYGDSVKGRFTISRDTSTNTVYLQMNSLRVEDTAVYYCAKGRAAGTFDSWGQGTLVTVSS
VL: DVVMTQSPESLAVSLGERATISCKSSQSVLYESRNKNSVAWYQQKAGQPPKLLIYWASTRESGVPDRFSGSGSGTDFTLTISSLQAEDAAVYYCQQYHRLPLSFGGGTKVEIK

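Phage display of a naive human antibody library on the peptide gave the parent. This is the validation round: designs drawn from the data on random variants, tested in the same kind of assay. Several design methods are mixed in this list. The scFvs were displayed on barcoded MATa yeast, the peptide on MATalpha yeast. The frequency of each diploid, read from paired DNA barcodes, reflects how well the two displayed proteins bind. Read counts were normalised to the haploid input and turned into Kd by a linear fit to BCL2-family pairs of known affinity, for each replicate. The assay was run in six technical replicates.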

Changes read parent residue, position, new residue, counted from the first residue of the VH shown.
Variants here have at most six changes.
The Kd shown is the geometric mean over detected replicates; a lower Kd is a better binder.
Where no diploid with the target was found in any replicate, the entry reads "nd": below detection, most likely a poor binder, though not proof of it.
The parent sequence was in this pool as ten entries: three were never detected, three once, and four in most replicates, with averages from 2.2 nM to 240 nM.
The range of this assay differs from that of the first round, and the authors advise against merging the two.
As a blank, each scFv also met three strains without target: over all heavy chain designs, 1% of these pairings were detected, typically at 120 nM and seldom below 7.0 nM.
The authors averaged sequences with at least three values out of six and counted those with two or fewer as poor binders.

changes,apparent Kd,seen in
T28Q+S31E+S63Q+D106I,nd,0 of 6
T28C+S31D+G61I,nd,0 of 6
R100S+A101V,2.5 nM,5 of 6
F59A+G99R,nd,0 of 6
G26K+S31E+G103V+S107V,nd,0 of 6
T28E+S31E+S107K,5.9 nM,6 of 6
T28D+G61V+S63D+S107V,1.4 nM,6 of 6
T28N+G61V+R100K,19 nM,3 of 6
G26M+T28S+S31E+F59Y,150 nM,5 of 6
T28S+S31D+G61A+S63A+A101T,390 pM,6 of 6
I34V+R100E+A101Q+G103D,nd,0 of 6
T28W+S53A+R100M,nd,0 of 6
T28D+A101T+S107Q,720 pM,6 of 6
T28N+S63P+A101Q,51 nM,3 of 6
G26K+T28S+S31N+G61A+A101N,16 nM,6 of 6
T28F+S31D+G61S+R100T,4.2 nM,6 of 6
G26K+T28D+R100I+A101T,74 nM,5 of 6
I34V+V64T+R100A+G103L+D106S,nd,0 of 6
T28W+S31E+A101W,130 nM,5 of 6
T28H+R100M+A101T,66 nM,6 of 6
T28H+S31E+A101T+S107T,490 pM,6 of 6
S31Q+R56M+G61S+A101L,2.9 nM,6 of 6
T28G+G61R+D106E+S107V,nd,0 of 6
T28E+G61V+R100Q+S107V,7.5 nM,6 of 6
G26H+T28S+G61S+R100N,17 nM,5 of 6
T28N+S31T,nd,0 of 6
T28E+S31E+A101C,7.8 nM,2 of 6
T28E+R100H+A101V,4.9 nM,6 of 6
S31Q+D54H+G61S+T104F,nd,0 of 6
F59H+A101N,1.3 µM,1 of 6
T28D+N30Q+G61Q,29 nM,5 of 6
A101G,nd,0 of 6
T28D+S63K+A101Q,2.8 nM,6 of 6
T28W+S31D+G61A+S107M,820 pM,1 of 6
T28D+G103W+D106W,nd,0 of 6
T28D+G61S+R100W,3.1 nM,6 of 6
G26Y+T28Q+S31E+A101T,78 nM,1 of 6
G26M+T28D+R100Q+A101E+S107T,14 nM,6 of 6
G61A+R100H+S107L,38 nM,6 of 6
S31E+F59V+G103V+F105K+S107Q,nd,0 of 6
S53A+D106Y,nd,0 of 6
G26E+G61D+R100Q+A101L,98 nM,6 of 6
T28S+S31E+F59M+G61I,990 pM,6 of 6
T28S+S31T+G61A+R100T,790 pM,6 of 6
N30T+S31Q+S53A+R100Y+D106N,810 pM,1 of 6
T28D+G61V+R100D,3.3 nM,6 of 6
N30K+S53A+R56K,5.7 nM,6 of 6
S31E+S63H+R100K+A101T,3.9 nM,6 of 6
T28S+R56K+G61A+S63N+R100Q,15 nM,6 of 6
S31E+G61E+S63D+A101H,10 nM,6 of 6
D54E+G61S+S63L+A101F+A102G,nd,0 of 6
G26K+S31E+A101I,3.4 nM,6 of 6
G26K+T28E+S53A+R100Q,11 nM,5 of 6
T28S+G61A+R100K+A101T+S107W,2.1 nM,6 of 6
G61I+T104R,nd,0 of 6
S31E+Y32M+I34V+G61N+A101F+S107T,240 nM,1 of 6
S31E+A101Q+S107T,26 nM,4 of 6
T28S+R100V+A101N,4.1 nM,6 of 6
S53A+D106W,nd,0 of 6
T28G+S31E+R100T,910 pM,6 of 6

From the list, the first 10 with no signal in any replicate:

{"changes": "T28Q+S31E+S63Q+D106I", "apparent Kd": "nd", "seen in": "0 of 6"}
{"changes": "T28C+S31D+G61I", "apparent Kd": "nd", "seen in": "0 of 6"}
{"changes": "F59A+G99R", "apparent Kd": "nd", "seen in": "0 of 6"}
{"changes": "G26K+S31E+G103V+S107V", "apparent Kd": "nd", "seen in": "0 of 6"}
{"changes": "I34V+R100E+A101Q+G103D", "apparent Kd": "nd", "seen in": "0 of 6"}
{"changes": "T28W+S53A+R100M", "apparent Kd": "nd", "seen in": "0 of 6"}
{"changes": "I34V+V64T+R100A+G103L+D106S", "apparent Kd": "nd", "seen in": "0 of 6"}
{"changes": "T28G+G61R+D106E+S107V", "apparent Kd": "nd", "seen in": "0 of 6"}
{"changes": "T28N+S31T", "apparent Kd": "nd", "seen in": "0 of 6"}
{"changes": "S31Q+D54H+G61S+T104F", "apparent Kd": "nd", "seen in": "0 of 6"}

Values reported by Li et al. 2023, doi:10.1038/s41467-023-39022-2 (FLAb copy).